scFv variants of Ab-14 (heavy chain) against a SARS-CoV-2 spike peptide

Antigen: PDVDLGDISGINAS, a 14-residue peptide of the SARS-CoV-2 spike HR2 region.

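Phage display of a naive human antibody library on the peptide gave the parent. AAYL49 was designed without a model: most single CDR substitutions and a random sample of double and triple ones. In AlphaSeq, yeast of one mating type display the scFv and yeast of the other type display the target. Pairs that bind mate more often; barcode pairs of the diploids are counted by sequencing. Each replicate has its own calibration line, from reference interactions of the BCL2 family. Each pool was mated in three replicate cultures.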

The variants keep the light chain, the linker and the frameworks of Ab-14 (scFv order VH, the linker GGGGSGGGGSGGGGS, VL).
VH: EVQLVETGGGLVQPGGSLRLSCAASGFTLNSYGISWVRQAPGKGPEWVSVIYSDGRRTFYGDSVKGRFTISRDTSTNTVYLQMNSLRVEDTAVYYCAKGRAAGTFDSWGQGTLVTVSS
VL: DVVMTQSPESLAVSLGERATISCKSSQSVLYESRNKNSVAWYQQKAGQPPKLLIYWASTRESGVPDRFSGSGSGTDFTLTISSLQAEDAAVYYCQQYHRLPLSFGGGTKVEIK

Each variant's VH is given in full.
This list gathers variants with a substitution at G33 (VH, numbered from residue 1).
Numbers give log10(Kd / nM), so 0 is 1 nM and 3 is 1 µM. Smaller is tighter.
The mean shown is taken over the replicates in which the pair was detected.
"nd" means that the variant was in the library but no mating with the target was seen in any replicate; the authors take this as a sign of poor binding, and no number exists.
Empty control strains, which show no peptide, gave a signal in 15% of pairings with library AAYL49; the median was 4.06 and 95% of these signals were weaker than 2.83. No background was subtracted. For each scFv, signals with the empty controls are counted beside the result.

- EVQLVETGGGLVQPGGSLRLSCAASGFTLNSYSISWVRQAPGKGPEWVSVIYQDGRRTFYGDSVKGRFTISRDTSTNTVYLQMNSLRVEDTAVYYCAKGRAAGLFDSWGQGTLVTVSS = nd (0 of 3 replicates; controls 3 of 9)
- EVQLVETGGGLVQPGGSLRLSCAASGFTLNSYDLSWVRQAPGKGPEWVSVIYSDGRRTFYGDSVKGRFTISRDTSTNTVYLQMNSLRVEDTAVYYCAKGRAALTFDSWGQGTLVTVSS = 6.24 (1 of 3 replicates; controls 2 of 9)
- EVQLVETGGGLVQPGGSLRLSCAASGFTLNSYCISWVRQAPGKGPEWVSSIYSDGRRQFYGDSVKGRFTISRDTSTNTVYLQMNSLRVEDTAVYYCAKGRAAGTFDSWGQGTLVTVSS = nd (0 of 3 replicates; controls 0 of 9)
- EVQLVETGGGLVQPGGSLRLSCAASGFTLNSYWISWVRQAPGKGPEWVSVIYSDSRRTFYGDSVKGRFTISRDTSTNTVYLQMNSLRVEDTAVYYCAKGRAAGTFDNWGQGTLVTVSS = nd (0 of 3 replicates; controls 2 of 9)
- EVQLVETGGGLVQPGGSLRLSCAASGFTLNSYFISWVRQAPGKGPEWVSVIYSDGERTFDGDSVKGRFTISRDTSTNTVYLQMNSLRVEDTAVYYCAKGRAAGTFDSWGQGTLVTVSS = 4.42 (1 of 3 replicates; controls 2 of 9)
- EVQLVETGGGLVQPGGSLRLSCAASGFTLNSYIISWVRQAPGKGPEWVSVIDSDGRRTDYGDSVKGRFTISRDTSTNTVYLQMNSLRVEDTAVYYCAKGRAAGTFDSWGQGTLVTVSS = nd (0 of 3 replicates; controls 1 of 9)
- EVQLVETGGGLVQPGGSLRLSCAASGFTLNSYQISWVRQAPGKGPEWVSVIYSDGRHTFYGDSVKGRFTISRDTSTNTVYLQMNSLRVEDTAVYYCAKGRTAGTFDSWGQGTLVTVSS = 3.63 (1 of 3 replicates; controls 2 of 9)
- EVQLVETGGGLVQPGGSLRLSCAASGFTLNSYNISWVRQAPGKGPEWVSVIYSDPRRTFYGDSVKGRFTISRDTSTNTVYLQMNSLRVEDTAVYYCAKGRAAGTNDSWGQGTLVTVSS = 5.17 (2 of 3 replicates; controls 4 of 9)
- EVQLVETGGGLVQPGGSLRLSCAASGFTLNSTRISWVRQAPGKGPEWVSVIYSDGRRTFYGDSVKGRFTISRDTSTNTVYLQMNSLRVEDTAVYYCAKGRAAGTFDSWGQGTLVTVSS = 4.37 (2 of 3 replicates; controls 3 of 9)
- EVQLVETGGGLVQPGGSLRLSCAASGFTLNSELISWVRQAPGKGPEWVSVIYSDGRRHFYGDSVKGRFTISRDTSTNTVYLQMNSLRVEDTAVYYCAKGRAAGTFDSWGQGTLVTVSS = nd (0 of 3 replicates; controls 0 of 9)
- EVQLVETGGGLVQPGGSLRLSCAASGFTLNSYRISWVRQAPGKGPEWVSVIYSDGRRTFYGDSNKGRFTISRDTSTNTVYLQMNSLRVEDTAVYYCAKGRAAGTFNSWGQGTLVTVSS = nd (0 of 3 replicates; controls 0 of 9)
- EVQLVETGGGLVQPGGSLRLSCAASGFTLNSYYISWVRQAPGKGPEWVSVIYSDGRYTFRGDSVKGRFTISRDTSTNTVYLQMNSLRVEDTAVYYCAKGRAAGTFDSWGQGTLVTVSS = nd (0 of 3 replicates; controls 0 of 9)
- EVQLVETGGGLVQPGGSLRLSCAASGFTLNSYWISWVRQAPGKGPEWVSVIGSDGRRTFYGDSDKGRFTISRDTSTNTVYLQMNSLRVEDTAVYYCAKGRAAGTFDSWGQGTLVTVSS = nd (0 of 3 replicates; controls 0 of 9)
- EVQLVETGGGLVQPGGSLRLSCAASGFTLNSYTISWVRQAPGKGPEWVSVIYSDGRRTFYGDSVAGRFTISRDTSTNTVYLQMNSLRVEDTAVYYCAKGRHAGTFDSWGQGTLVTVSS = nd (0 of 3 replicates; controls 3 of 9)
- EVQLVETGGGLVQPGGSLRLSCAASGFTLNSYPISWVRQAPGKGPEWVSVIASDGRRTFYGDSVKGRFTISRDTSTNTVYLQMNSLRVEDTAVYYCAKGRYAGTFDSWGQGTLVTVSS = nd (0 of 3 replicates; controls 0 of 9)
- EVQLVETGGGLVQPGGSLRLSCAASGFMLNSYYISWVRQAPGKGPEWVSVIYSDGRRTFYGDSVKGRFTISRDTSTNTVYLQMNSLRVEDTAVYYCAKGRAAGTFMSWGQGTLVTVSS = nd (0 of 3 replicates; controls 2 of 9)
- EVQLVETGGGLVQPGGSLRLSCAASGFTKNSYLISWVRQAPGKGPEWVSVIYSDGRRTFSGDSVKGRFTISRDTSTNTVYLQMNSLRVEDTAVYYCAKGRAAGTFDSWGQGTLVTVSS = nd (0 of 3 replicates; controls 0 of 9)

Values reported by Engelhart et al. 2022, doi:10.1038/s41597-022-01779-4 (FLAb copy).